Literature values in patent publication US12233205B2, “Thermal modulation of an inhalable medicament” (priority 2014, dated 2025).

Conditions: in vivo, po

Row | Substance | bioavailability
1 | Acetaminophen/Diphenhydramine | 65-100%
2 | Ibuprofen/Diphenhydramine | 65-100%
